Measurements reported in PubChem BioAssay AID493008 (The Scripps Research Institute Molecular Screening Center, 2010).
The entries are a selection whose mix differs from that of the whole data set. Calls of active or inactive are those of the source.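 The calls were made as follows: active = activation above the mean over all tested compounds plus 3 SD (cut at about 30% in these data); inactive = the rest.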

target: Troponin I, cardiac muscle (Homo sapiens) + Troponin T, cardiac muscle (Homo sapiens) + Troponin C, slow skeletal and cardiac muscles (Homo sapiens) (UniProt P19429+P45379+P63316); assay: calcium sensitizers of cardiac thin filaments – biochemical, IANBD-TnC fluorescence, EC20 calcium, primary screen (AID 493008); conditions: IANBD-labeled TnC RTF fluorescence at EC20 calcium; at 7.2 µM; active compounds read high; 0% EC20 calcium, 100% full calcium;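 also: rise in fluorescence read as greater calcium sensitivity of cardiac thin filaments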

Structure (SMILES) | activation
O=P1(N(CCCl)CCCl)OCCCS1 (stereo not drawn) | inactive: -1.25%
O=C(Nc1cc([As](=O)(O)O)ccc1O)c1ccccc1 | inactive: 7.28%
CC(C)(C)C(=O)NC(Sc1ccncn1)C(Cl)(Cl)Cl (stereo not drawn) | inactive: 4.34%
O=[N+]([O-])c1ncn(CCn2ncnc2[N+](=O)[O-])n1 | inactive: -2.92%
COC(=O)C1(C)COP(=O)(Nc2ccccc2)OC1 (stereo not drawn) | inactive: 10.7%
O=[N+]([O-])c1cccc(NC2=NCC(CBr)S2)c1 (stereo not drawn) | inactive: 2.46%
O=C(O)CNc1ccc([As](=O)(O)O)cc1 | inactive: 0.75%
COc1ccc(C2=NCC(CBr)S2)cc1 (stereo not drawn) | inactive: 2.04%
O=[N+]([O-])c1cccc2n[nH]nc12 | inactive: 6.49%
CC(=O)N1C2C3N(C(C)=O)C1C1N(C(C)=O)C(C(N1C(C)=O)N3C(C)=O)N2C(C)=O | inactive: -3.73%
CCc1nc2c(n1)c1c(non1O)c1c2no[n+]1[O-] | inactive: 1.51%
O=[N+]([O-])c1cc([N+](=O)[O-])c(CCNc2ccccc2)c([N+](=O)[O-])c1 | inactive: 0.62%
Cc1ccc(NP(=O)(Oc2ccccc2)Oc2ccccc2)nc1 | inactive: 4.44%
C[N+]1=C2C=CC=CC=C2SC12C([N+](=O)[O-])=CC([N+](=O)[O-])=C[C-]2[N+](=O)[O-] (stereo not drawn) | inactive: -6.21%
Nc1ccc([As](=O)(O)c2ccc(N)cc2)cc1 | inactive: 8.35%
CCN(/C(=N/P(=O)(N1CCOCC1)N1CCOCC1)N1CCOCC1)c1ccc(OC)cc1 | inactive: 0.55%
CN(C)C(=O)OCCc1n(C)cc[n+]1C | inactive: 0.27%
CC(C)=N/N=C(\N)N[N+](=O)[O-] | inactive: -5.47%
CC1CCN(C(=O)Oc2c(Cl)cc(Cl)c3cccnc23)CC1 | inactive: 2.68%
CC(C)C(=O)NC(Sc1ccccc1)C(Cl)(Cl)Cl (stereo not drawn) | inactive: -4.54%

Structure (SMILES) | activation
O=P(Nc1nccs1)(c1ccccc1)c1ccccc1 | inactive: 1.71%
c1nnnn1CCn1cnnn1 | inactive: 9.79%
COc1ccc(N)c([N+](=O)[O-])c1[N+](=O)[O-] | inactive: 1.14%
O=P(Nc1ccccn1)(c1ccc(Br)cc1)c1ccc(Br)cc1 | inactive: 8.01%
CN(C)C1(CNC(=O)c2ccc(Cl)c(S(N)(=O)=O)c2)CCCCC1 | inactive: -3.34%
C[C@H]1OP(=O)(Oc2ccccc2)[C@H](O)[C@H](O)[C@H]1N=[N+]=[N-] (stereo partly drawn) | inactive: -4.35%
O=P(Nc1nc2ccccc2s1)(c1ccccc1)c1ccccc1 | inactive: -6.8%
O=[N+]([O-])c1ccc(O)c(/C=N/Nc2ccc([N+](=O)[O-])cc2[N+](=O)[O-])c1 | inactive: -3.82%
O=[N+]([O-])c1ncn(CCn2cnc([N+](=O)[O-])n2)n1 | inactive: -0.73%
CC(=O)NC(SC(=S)N(C)C)C(Cl)(Cl)Cl (stereo not drawn) | inactive: 1.25%
O=[As](O)(c1ccccc1)c1ccc(O)cc1 | inactive: -1.25%
C(Cc1nn[nH]n1)Cc1nn[nH]n1 | inactive: 3.35%
Nc1ccc([As](=O)(O)c2ccc([N+](=O)[O-])cc2)cc1 | inactive: 4.71%
O=C(OC1CN2CCC1CC2)c1cccc(Cl)c1 (stereo not drawn) | inactive: 1.03%
CCNC(=S)/N=C(\N)N[N+](=O)[O-] | inactive: -0.82%
O=C(NC1CCS(=O)(=O)C1)NP(=S)(Oc1ccccc1)Oc1ccccc1 (stereo not drawn) | inactive: -9.11%
O=P1(N(CCCl)CCCl)OCCC2CCCCN21 (stereo not drawn) | inactive: -3.29%
Cc1ccc(OP(=O)(Nc2ccccn2)Oc2ccc(C)cc2)cc1 | inactive: -0.52%
CC(=O)NC(SC(=S)N(CC(C)C)CC(C)C)C(Cl)(Cl)Cl (stereo not drawn) | inactive: 1.95%
COC(=O)c1cc2c(s1)N=C(c1ccccc1)N(C)P2(=O)N1CCOCC1 (stereo not drawn) | inactive: -0.32%

Structure (SMILES) | activation
CCC(=O)N1C2C3N(C(=O)CC)C1C1N(C(=O)CC)C(C(N1C(=O)CC)N3C(=O)CC)N2C(=O)CC | inactive: 7.69%
O=C(OC1CN2CCC1CC2)c1ccccc1 (stereo not drawn) | inactive: -3.71%
O=c1c2cc([N+](=O)[O-])ccc2[nH]c2c([N+](=O)[O-])cc([N+](=O)[O-])cc12 | inactive: 0.17%
CN(C)C(=O)Oc1noc2ccccc12 | inactive: -3.25%
CC(NC(=O)COC(=O)C(O)(c1ccccc1)c1ccccc1)c1ccccc1 (stereo not drawn) | inactive: -1.35%
Cc1ccccc1OP(=O)(Nc1ccccn1)Oc1ccccc1C | inactive: 9.88%
CCOc1ccc(C2=NCC(CBr)S2)cc1 (stereo not drawn) | inactive: -6.62%
O=P1(Nc2nc3ccc(Cl)cc3s2)COc2ccccc2O1 (stereo not drawn) | inactive: 7.52%
CCc1cc(O)c([N+](=O)[O-])c(C)c1[N+](=O)[O-] | inactive: -0.59%
CC(C)(C)C(=O)NC(Sc1ccccc1)C(Cl)(Cl)Cl (stereo not drawn) | inactive: -0.77%
COC(=O)C1(C)COP(=O)(NCc2ccccc2)OC1 (stereo not drawn) | inactive: -3.84%
CC(=O)c1ccc(N2CC2c2ccncc2)cc1 (stereo not drawn) | inactive: -5.04%
N#C/C(=C\c1ccc(N(CCBr)CCBr)cc1)C(N)=O | inactive: 3.26%
C[C@H]1OP(=O)(Oc2ccccc2)C[C@@H]2O[C@@H]21 (stereo partly drawn) | inactive: 1.88%
C[C@@H]1C=CCP(=O)(Oc2ccccc2)O1 (stereo partly drawn) | inactive: -1.75%
Cc1ccccc1CN(C)C(=O)COC(=O)C(O)(c1ccccc1)c1ccccc1 | inactive: -0.66%
CC(=O)Nc1ccc(Oc2c([N+](=O)[O-])cc([N+](=O)[O-])cc2[N+](=O)[O-])cc1 | inactive: 0.12%
CC(=O)Nc1ccc([As](=O)(O)O)c(O)c1 | inactive: 0.27%
